Earlier results, collected in patent US20150044136A1, “Ophthalmological treatment for michobial infections” (priority 2013, published 2015).

Conditions: forming a viscous solution; cited from earlier work

For pectin, the solubility in water is listed as 20 parts of water.
